For this assay, the target named is Luciferin 4-monooxygenase (Photuris pensylvanica) (UniProt Q27757). Put plainly: Counterscreen for Luciferase (Kinase-Glo TM) Inhibition. Note: nearly all actives have a fitted effect of over 60% in size. The note with it: ATP luminescence, 8 min; at 38.3 µM (top of the series) unless noted. Here is the method: NCGC Assay Overview: NIH Molecular Libraries Screening Centers Network [MLSCN] NIH Chemical Genomics Center [NCGC] MLSCN Grant: None Luciferase (Kinase-Glo, Promega Corporation) was assayed for its ability to generate light using ATP and luciferin as substrates. The ATP concentration in the assay (10 uM) was within the linear range of enzyme activity for the assay conditions used.
NCGC Assay Protocol Summary: Four uL of substrate mix (final concentration, 50 mM imidazole pH 7.2, 50 mM KCl, 7 mM MgCl2, 10 uM ATP, 0.01% Tween 20, 0.05% BSA) was dispensed into white 1536 well plates. Twenty-three nL of compound was delivered by a pin tool and 2 uL of luciferase detection mix (Kinase-Glo, Promega)) was added. Following 8-minute incubation at ambient temperature, luminescence was measured by a ViewLux (Perkin Elmer) at 5 seconds exposure/plate.
A general note: A counterscreen serves to expose hits that act by an unwanted route or on another target.

Only a part is listed here, and it is no random draw. Active and inactive are the calls of the source. Calls come from the whole dose curve; as a rule, active = well fitted inhibition curve with a large enough effect; inconclusive = small, poorly fitted or top-dose-only effect; inactive = flat fitted curve, though single readings scatter.
% is set by controls: 0 for no effect and ±100 for the full control effect.

As to `Cc1cc(SC(NC=O)C(Cl)(Cl)Cl)ncn1` (centres undefined), the activity change, negative = inhibition is inactive: -2.26%.

With `O=P(Nc1ccccn1)(c1cccc2ccccc12)c1cccc2ccccc12`, the activity change, negative = inhibition was inactive: 3.16%. Then `Cc1cc(SC(NC(=O)c2ccccc2)C(Cl)(Cl)Cl)nc(C(C)C)n1` (centres undefined), with inactive: 3.24%; and `CCC(C)N(CC(C)C)C(=S)SC(NC(C)=O)C(Cl)(Cl)Cl` (centres undefined), with inactive: -2.01%.

For the compound `COP1(=S)c2c(C)nn(CCC#N)c2N=C(c2ccc(F)cc2)N1C` (centres undefined), the activity change, negative = inhibition was inactive: -3.4%.

Take `O=C(COc1ccccc1)OC1CN2CCC1CC2` (centres undefined): the activity change, negative = inhibition was inactive: 3.12%. For the compound `O=C(O)[C@@H](O)c1ccc([As](=O)(O)O)cc1`, the activity change, negative = inhibition is inactive: -0.645% [at 7.66 µM]. Then `O=C(OC1CN2CCC1CC2)C12CC3CC(CC(C3)C1)C2` (centres undefined), with inactive: 2.55%; and `Cc1cc(=O)[nH]c(N[N+](=O)[O-])n1`, with inactive: -1.04%; and `Cc1c2c(nc3ccccc13)SC(C(Cl)Cl)C2` (centres undefined), with inactive: -1.91%.

Turning to `COc1ccc2nc(NP(=O)(c3ccccc3)c3ccccc3)sc2c1`, the activity change, negative = inhibition is inactive: 3.07%. Then `NC(=O)Nc1cc([As](=O)(O)O)cc(I)c1O`, with inactive: -5.15% [at 7.66 µM]; and `[N-]=[N+]=NCC(N)=O`, with inactive: -8.34% [at 7.66 µM]; and `ClCCSc1nnc(-c2cccnc2)o1`, with inactive: -4.91%. Then `O=[As]c1ccc(S(=O)(=O)NCCO)cc1` (centres undefined), with inactive: -2.97% [at 7.66 µM]; and `CC(C)NC(=O)NP(=O)(Oc1ccccc1)Oc1ccccc1`, with inactive: -2.2%; and `CCN(CC)C(=S)SC(NC=O)C(Cl)(Cl)Cl` (centres undefined), with inactive: -4.51%. Then `O=[N+]([O-])c1cc([N+](=O)[O-])c(-c2ccn[nH]2)s1`, with inactive: -0.506%; and `Cc1ccc2nc3c(c(C)c2c1)CC(C(Cl)Cl)S3` (centres undefined), with inactive: 5.04%. Consider `NC(=O)Nc1ccc([As](=O)(O)O)cc1`, for which the activity change, negative = inhibition was inactive: 3.05% [at 17.1 µM]. In the case of `O=[N+]([O-])CC(O)c1ccc([N+](=O)[O-])cc1` (centres undefined) it was inactive: 0.528%; in that of `O=[N+]([O-])c1ccc2c(c1)nnn2O`, inactive: -2.65%; in that of `CCOP1(=S)c2c(C)nn(CCC#N)c2N=C(c2ccc(F)cc2)N1C` (centres undefined), inactive: 1.94%. Then `CN(C(=O)Cc1ccccc1)[C@@H]1CC[C@]2(CCCO2)C[C@H]1N1CCCC1`, with inactive: -8.88%; and `CCOP1(=S)c2c(C)nn(CCC#N)c2N=C(c2ccccc2F)N1C` (centres undefined), with inactive: -1.08%. In the case of `O=P(Nc1nccs1)(Oc1ccccc1)Oc1ccccc1` it was inactive: 0.625%; in that of `O=P(Nc1nccs1)(c1ccccc1)c1nc2ccccc2s1` (centres undefined), inactive: 62.2%. With `O=[As](O)(O)c1ccc([As](=O)(O)O)cc1`, the activity change, negative = inhibition was inactive: -1.99% [at 7.66 µM].

With `NS(=O)(=O)Cc1ccc([As](=O)(O)O)cc1`, the activity change, negative = inhibition was inactive: -3.99% [at 7.66 µM]. Then `Cc1ccc(NCCc2c([N+](=O)[O-])cc([N+](=O)[O-])cc2[N+](=O)[O-])cc1`, with inactive: -1.76%.

`O=C(CC(=O)c1ccccc1)O[C@H]1CN2CCC1CC2`: the activity change, negative = inhibition is inactive: -3.44% [at 7.66 µM]. `COc1cc(C2NCCC3(OCCO3)C2(C)C)cc(OC)c1OC` (centres undefined): the activity change, negative = inhibition is inactive: 1.05%. In the case of `CCOP(=O)(Nc1cccc2ccccc12)OCC`, the activity change, negative = inhibition is inactive: -0.162%.

Regarding `COc1cc(C(=O)NCC2(N3CCOCC3)CCCCC2)cc(Cl)c1OC(C)C`, the activity change, negative = inhibition is inactive: -0.0002%. For the compound `CN(C(=O)Cc1ccc(Cl)c(Cl)c1)[C@@H]1CC[C@]2(CCCO2)C[C@H]1N1CCCC1`, the activity change, negative = inhibition is inactive: -4.25%.

On to `Cc1cccc(OCC(=O)OC2CN3CCC2CC3)c1` (centres undefined), for which the activity change, negative = inhibition is inactive: 2.05%. Turning to `CN(C(=O)Cc1ccc(Cl)c(Cl)c1)[C@@H]1CCCC[C@H]1N1CCCC1`, the activity change, negative = inhibition is inactive: -5.66%. `CC(C)/C=N\N=C(\N)N[N+](=O)[O-]`: the activity change, negative = inhibition is inactive: -0.793%. For the compound `CN(CCCl)Cc1cc(Cl)c(NC2=NCCN2)c(Cl)c1`, the activity change, negative = inhibition is inactive: -9.85%. In the case of `O=P1(Nc2ccccn2)COc2ccccc2OC1` it was inactive: 0.259%.

Turning to `O=P1(Nc2ncccn2)COc2ccccc2OC1`, the activity change, negative = inhibition is inactive: -2.18%.

`Cc1ccc(OCC(=O)OC2CN3CCC2CC3)cc1` (centres undefined): the activity change, negative = inhibition was inactive: 0.441%. Take `O=P1(Nc2ccc(Br)cn2)COc2ccccc2OC1`: the activity change, negative = inhibition was inactive: -6.02%. In the case of `Cc1nn(-c2ccccc2)c2c1P(=O)(N1CCOCC1)N(C)C(c1ccccc1)=N2` (centres undefined) it was inactive: 2.34%; in that of `CC1CCC(C(C)C)C(OP(=O)(Nc2ccccn2)c2ccccc2)C1` (centres undefined), inactive: -1.38%. Then `CC(=O)NC(SC(=S)N(C)C)C(Cl)(Cl)Cl` (centres undefined), with inactive: 0.506%; and `C(Cc1nn[nH]n1)Cc1nn[nH]n1`, with inactive: 3.55%. In the case of `O=C(OC1CN2CCC1CC2)c1cccc(Cl)c1` (centres undefined), the activity change, negative = inhibition was inactive: -3.16%. Then `O=P(Nc1ccccn1)(c1ccc(Br)cc1)c1ccc(Br)cc1`, with inactive: -2.44%.
